{
  "sequences": {"note": "Sequences of proteins named here, by UniProt entry; tags and fusion partners are left off.", "UniProt P33535, whole entry": "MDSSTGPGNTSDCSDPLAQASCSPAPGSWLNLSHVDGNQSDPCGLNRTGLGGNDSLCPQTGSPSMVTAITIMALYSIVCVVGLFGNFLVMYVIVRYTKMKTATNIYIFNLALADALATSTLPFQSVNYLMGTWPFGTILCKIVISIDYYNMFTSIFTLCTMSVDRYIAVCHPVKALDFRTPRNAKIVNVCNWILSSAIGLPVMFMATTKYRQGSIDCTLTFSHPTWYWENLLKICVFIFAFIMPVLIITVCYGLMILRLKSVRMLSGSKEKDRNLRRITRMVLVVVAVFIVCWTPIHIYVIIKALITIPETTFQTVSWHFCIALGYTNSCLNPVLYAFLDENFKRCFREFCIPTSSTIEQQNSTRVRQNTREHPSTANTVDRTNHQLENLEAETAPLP"},
  "source": "paper PMC3818563",
  "about": "“Effect of Iboga Alkaloids on µ-Opioid Receptor-Coupled G Protein Activation” (PLoS ONE, 2013)",
  "biological_target": "μ-opioid receptor (MOR) (Rattus norvegicus, UniProt P33535)",
  "experiment": "[35S]GTPγS binding in Sprague-Dawley rat thalamic membranes (Reith lab)",
  "type": "biochemical",
  "design": "from tissue; host or cells: rat thalamus membranes (Sprague-Dawley; also Fischer F344 in the Janowsky lab)",
  "note": "Several values for one entry are separate records, joined by “and”; a condition that tells them apart may be missing. Equal entries are not always repeated.",
  "data": [
    {"substance": "Ibogaine HCl", "values": [
      {"measurement": "Ki", "setting": "read-out: Antagonist activity Ke (functional Ki)", "result": "3 µM and 3.05 µM"},
      {"measurement": "IC50", "setting": "read-out: IC50 for inhibition of the stimulatory response evoked by DAMGO", "result": "19.3 ± 4.3", "unit": "µM"}
    ]}
  ]
}
